Data set [1] can be described thus: Cytotoxicity against human BEAS2B cells assessed as reduction in cell survival. It is filed as toxicity, cell-based. The conditions noted are these: beas-2b.
Data set [2] in a line: Cytotoxicity against human A549 cells assessed as reduction in cell survival. The format is toxicity, cell-based.

SMILES strings stand for the structures.

In the case of `Cl.N=C(N)N/N=C/c1ccc(-c2ccc(/C=N/Nc3ccc(F)cc3)cc2)cc1`, the figures for the concentration for half-maximal inhibition (IC50) in data set [1] and in data set [2] were 6 µg/mL and 4.4 µg/mL, respectively.

(Values after ChEMBL document CHEMBL3871280.)
